Results taken from patent US20050013875A1, “Immunopotentiators in thermotherapy for cancer” (priority 2001, published 2005).

Assay: Body weight change of rats under hyperthermia
Type: in vivo, rat
Conditions: (GGA+AMF) Group: MCL and GGA administered, three magnetic field irradiations; control with neither MCL nor GGA and no irradiation; FIG. 4
Protocol: As experimental individuals, F344 rats (female, 7 to 8-weeks old) were used. MFH cells 1×10^7 cultured on Petri dish for cell-cultivation were dispersed in about 50 μl of a physiologically buffered saline, and then, the cells suspension was transplanted subcutaneously to a right leg of an experimental individual by using a scalp vein needle (25G×5/8″) (Terumo Corporation) to make a cancer-carried experimental individual. Nembutal (available from Dainippon Pharmaceutical Co., Ltd.) was used for anesthesia, and that diluted to five times (50 mg/kg body weight) was administered to abdominal cavity.
Under anesthesia of a rat, MCL with a concentration of 7.5 mg/ml and 3.3 mg of net weight magnetite was administered to the tumor tissue of the rat 10 days after transplantation of the MFH cells over 30 minutes by using a microsyringe pump (SP100i syringe pump, manufactured by WPI Co.), and thereafter, the rat was allowed to stand for 30 minutes. Magnetic field irradiation was carried out after 24 hours from injection of the MCL.
To 500 mg of Gum Arabic powder was adhered 1 g of GGA, 0.5% of Tween 80 solution was gradually added to the above mixture, to emulsify the mixture under stirring, and a final volume thereof was adjusted to 10 ml. […]

geranylgeranyl acetone [GGA]
body weight change compared with Control Group: substantially the same
